Measured values reported in patent US20180191012A1, “AQUEOUS PYRIDINIUM CATION-BASED REDOX FLOW BATTERIES” (UCHICAGO ARGONNE, LLC, priority 2016, published 2018).

Assay: Electrochemical stability on cycling

N,N′-(ethan-1,2-diyl)-4,4′-dimethyl-2,2′-bipyridinedium dibromide
electrochemical stability: decay (after 1000 cycles): less than 10% | electrochemical stability (result in words): excellent electrochemical stability
